## Measured affinities in a library of Ab-14 heavy chain variants

Data: MIT Lincoln Laboratory AlphaSeq set, Li et al. 2023, doi:10.1038/s41467-023-39022-2, as distributed in FLAb.

Binding partner: SARS-CoV-2 spike HR2 peptide, sequence PDVDLGDISGINAS.

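Phage display of a naive human antibody library on the peptide gave the parent. These sequences belong to a second round, designed from the earlier measurements on random variants of the parent. Group labels follow the data file (Ctrl: baseline library sampled from a position-specific scoring matrix, with some repeated check sequences; Rand: our label for a block that the file lists under HC and that is probably the random mutants of the ten best first-round binders; GP: Gaussian process model; GPLM: also part of the Gaussian process libraries; HC: hill climbing; Gen: genetic algorithm; Gibbs: Gibbs sampling; a sequence that several methods proposed may carry one label only). Affinity was read by AlphaSeq, a pooled yeast mating assay with surface-displayed partners. After mating in shaken culture at 30 °C for 16 h, diploids were selected and their barcode pairs sequenced. A regression on co-assayed BCL2-family reference pairs converts the normalised counts of each replicate to an apparent Kd. There are six technical replicates.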

The variants keep the light chain, the linker and the frameworks of Ab-14 (scFv order VH, a (GGGGS)3 linker, VL).
VH: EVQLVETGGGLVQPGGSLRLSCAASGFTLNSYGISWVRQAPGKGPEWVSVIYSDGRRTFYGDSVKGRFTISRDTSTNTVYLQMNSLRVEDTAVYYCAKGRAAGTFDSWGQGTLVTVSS
VL: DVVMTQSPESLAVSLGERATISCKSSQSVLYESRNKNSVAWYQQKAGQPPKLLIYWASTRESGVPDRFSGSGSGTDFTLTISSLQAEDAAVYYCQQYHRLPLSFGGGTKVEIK

Substitutions are numbered in sequence along the VH above, starting at 1 (not Kabat).
Variants here have at most six changes.
Values are apparent Kd, the geometric mean of the replicates that gave a signal; lower means stronger binding.
An entry "no signal" has no value in the source: the pair was not observed among the diploids in any replicate. This suggests poor binding but is not conclusive.
Three control strains display no target. For all heavy chain designs, 1% of the pairings with them gave a signal, with a median of 120 nM and one signal in twenty below 7.0 nM, so weak values seen in few replicates may be background.
Some sequences occur more than once in the pool; their replicates are pooled.
Values of this round are not directly comparable with the first-round values of the same sequences.
The parent sequence was in this pool as ten entries: three were never detected, three once, and four in most replicates, with averages from 2.2 nM to 240 nM.
The authors averaged sequences with at least three values out of six and counted those with two or fewer as poor binders.

For T28D+G61K+R100N [GPLM_Gibbs], the assay gave 4.1 nM (6 of 6 replicates).
For T28N+S63R+A101N [GP_Gen], the assay gave 1.6 nM (5 of 6 replicates).
For R56K+G61A+S63R+R100Q+S107L [GP_Gibbs], the assay gave 180 nM (2 of 6 replicates).
For F27R+S31L [Ctrl], the assay gave 64 nM (1 of 6 replicates).
For T28S+S31E+G61S+A102G [GPLM_HC], the assay gave 4.2 nM (6 of 6 replicates).
For T28D+S63Q+A101T+S107M [GP_Gen], the assay gave 2.2 nM (6 of 6 replicates).
For F27A+R56L+V64F+R100D+S107L [Ctrl], the assay gave no signal (0 of 6 replicates).
For N30E+S63K+G103W [Ctrl], the assay gave no signal (0 of 6 replicates).
For T28E+S31E+R100K+A101T [GP_Gen], the assay gave 590 pM (6 of 6 replicates).
For T28N+L29I+S31E [Ctrl], the assay gave 3.0 nM (6 of 6 replicates).
For T28D+S63N+A101T+S107A [GP_Gibbs], the assay gave 1.2 nM (6 of 6 replicates).
For F59Y+G99T+R100N [Ctrl], the assay gave no signal (0 of 6 replicates).
For F27Y+S53A [GPLM_Gen], the assay gave 45 nM (6 of 6 replicates).
For S53A+G99T+A101N [Ctrl], the assay gave no signal (0 of 6 replicates).
For R56Y+A102P [Ctrl], the assay gave no signal (0 of 6 replicates).
For S31D+S53A+G61S+R100Q [Ctrl], the assay gave 320 pM (6 of 6 replicates).
For S31D+R100K+S107V [GPLM_HC], the assay gave 3.7 nM (6 of 6 replicates).
For T28D+S31E+F59M [GP_Gen], the assay gave 3.9 nM (6 of 6 replicates).
For T28N+D106I [Ctrl], the assay gave no signal (0 of 6 replicates).
For G26F+L29D+S31Q+G61S+T104F [Rand], the assay gave no signal (0 of 6 replicates).
For T28S+S63N+R100Q+S107K [GP_Gen], the assay gave 5.3 nM (6 of 6 replicates).
For S31N+G61S+R100T [GP_HC], the assay gave 1.8 nM (6 of 6 replicates).
For S31D+R56Q+G61I [GP_HC], the assay gave 7.8 nM (5 of 6 replicates).
For T28S+R100S+S107K [GPLM_Gibbs], the assay gave 370 pM (6 of 6 replicates).
For S31E+R100K+A101V+S107T [GPLM_Gibbs], the assay gave 3.0 nM (6 of 6 replicates).
For F27H+L29P+G61A [Ctrl], the assay gave no signal (0 of 6 replicates).
For T28N+A101N [Ctrl+GPLM_Gibbs], the assay gave 11 nM (12 of 12 replicates).
For F59S+K65V+A101L [Ctrl], the assay gave 17 nM (1 of 6 replicates).
For R56L+S63Q+R100W+A102K+F105S+D106N [Ctrl], the assay gave no signal (0 of 6 replicates).
For T28N+G103S [Ctrl], the assay gave no signal (0 of 6 replicates).
For T28S+S31E+R100E+S107N [GP_Gen], the assay gave 1.8 nM (6 of 6 replicates).
For R100Q+A102M [Ctrl], the assay gave no signal (0 of 6 replicates).
For S31E+G61T+R100Q+A101F [GPLM_HC], the assay gave 8.0 nM (6 of 6 replicates).
For T28N+S107K [Ctrl], the assay gave 68 nM (2 of 6 replicates).
For T28M+S31Q+R100S+A102S [Ctrl], the assay gave 2.8 nM (1 of 6 replicates).
For T28D+G99Q+S107W [Ctrl], the assay gave 21 nM (6 of 6 replicates).
For S31E+R56I+A101Q [GPLM_HC], the assay gave 2.6 nM (6 of 6 replicates).
For T28H+G61A+R100S [GPLM_Gen], the assay gave 7.9 nM (6 of 6 replicates).
For T28D+R56K+T104W+D106N [Rand], the assay gave no signal (0 of 6 replicates).
For L29P+I34V+A101E+A102M [Ctrl], the assay gave no signal (0 of 6 replicates).
For L29M+A101N+S107E [Ctrl], the assay gave 31 nM (1 of 6 replicates).
For T28S+V64F+R100Y [Ctrl], the assay gave 87 nM (2 of 6 replicates).
For T28A+G61Q+R100E [GP_Gen], the assay gave 3.6 nM (6 of 6 replicates).
For R56Q+R100Q [Ctrl], the assay gave 28 nM (5 of 6 replicates).
For R56K+G61S+A102M+S107T [GP_HC], the assay gave no signal (0 of 6 replicates).
For T28D+A101V+S107T [GPLM_Gen], the assay gave no signal (0 of 6 replicates).
For N30E+R100Q+A101T+S107A [GPLM_Gibbs], the assay gave 3.5 nM (6 of 6 replicates).
For S31Q+G61S+A101T [GPLM_HC], the assay gave 910 pM (6 of 6 replicates).

Top 4 of the variants detected in all replicates, tightest first:

changes	group	apparent Kd	replicates with signal
S31D+S53A+G61S+R100Q	Ctrl	320 pM	6 of 6
T28S+R100S+S107K	GPLM_Gibbs	370 pM	6 of 6
T28E+S31E+R100K+A101T	GP_Gen	590 pM	6 of 6
S31Q+G61S+A101T	GPLM_HC	910 pM	6 of 6